PMC3983056 (PLoS Pathogens, 2014)
pIC50: −log10 of the molar value.

Target: T1, human HDAC-10 (Homo sapiens, UniProt Q969S8)
T1 construct: purchased Reaction Biology Corporation (Malvern, PA)
T1 sequence (Q969S8 1-669): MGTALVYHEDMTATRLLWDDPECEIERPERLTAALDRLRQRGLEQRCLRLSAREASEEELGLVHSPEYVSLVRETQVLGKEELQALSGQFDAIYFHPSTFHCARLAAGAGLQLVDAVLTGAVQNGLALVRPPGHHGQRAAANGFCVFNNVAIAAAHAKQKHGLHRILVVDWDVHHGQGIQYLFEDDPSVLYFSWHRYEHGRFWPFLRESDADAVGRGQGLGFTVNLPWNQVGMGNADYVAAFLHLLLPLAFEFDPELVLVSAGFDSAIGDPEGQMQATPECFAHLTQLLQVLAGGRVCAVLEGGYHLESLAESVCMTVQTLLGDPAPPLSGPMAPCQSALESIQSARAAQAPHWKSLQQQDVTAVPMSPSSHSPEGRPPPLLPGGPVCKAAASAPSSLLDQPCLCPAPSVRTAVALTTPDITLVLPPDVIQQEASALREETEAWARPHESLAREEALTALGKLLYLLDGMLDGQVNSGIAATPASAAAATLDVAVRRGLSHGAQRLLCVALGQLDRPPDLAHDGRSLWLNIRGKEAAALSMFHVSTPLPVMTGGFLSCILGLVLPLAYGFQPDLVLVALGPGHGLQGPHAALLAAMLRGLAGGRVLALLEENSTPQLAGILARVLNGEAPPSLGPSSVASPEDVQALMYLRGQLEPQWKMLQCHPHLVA
Assay: HDAC inhibition assay
Assay type: biochemical
Conditions: HDAC class 2b; mean of two experiments

SMILES: O=C(CCCCCCC(=O)Nc1ccccc1)NO [VOR, suberoylanilide hydroxamic acid]
- pIC50: 6.28
